Apparent affinities of Ab-14 variants for a coronavirus HR2 peptide

Antigen: PDVDLGDISGINAS, a 14-residue peptide of the SARS-CoV-2 spike HR2 region.

Parent scFv Ab-14: VH joined to VL by a (GGGGS)3 linker. Changes lie in the light chain CDRs alone.
VH: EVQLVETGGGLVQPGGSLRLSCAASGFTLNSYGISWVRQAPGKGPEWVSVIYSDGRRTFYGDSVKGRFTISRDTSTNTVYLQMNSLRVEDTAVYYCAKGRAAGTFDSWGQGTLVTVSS
VL: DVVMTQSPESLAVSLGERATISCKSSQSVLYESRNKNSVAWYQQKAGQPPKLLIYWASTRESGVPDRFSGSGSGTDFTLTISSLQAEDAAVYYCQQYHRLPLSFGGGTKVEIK

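The parent was found by panning a naive human phage display library on the peptide. The library (AAYL50) carries one to three amino acid substitutions per variant, with no insertions or deletions. Affinity was read by AlphaSeq, a pooled yeast mating assay with surface-displayed partners. Mating (16 h, 30 °C) was followed by selection of diploids and sequencing of their barcodes. The ratio of observed to expected reads was calibrated, replicate by replicate, on BCL2-family standards whose Kd was known from biolayer interferometry. Mating was done three times.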

Each variant is given by its three light chain CDRs, as the data file delimits them; those of the parent are KSSQSVLYESRNKNSVA, WASTRES, QQYHRLPLS.
This list gathers variants with a substitution at N37 (VL, numbered from residue 1).
Numbers give log10(Kd / nM), so 0 is 1 nM and 3 is 1 µM. Smaller is tighter.
The mean shown is taken over the replicates in which the pair was detected.
A pair that was not seen in that replicate is written "ND"; this usually means weak binding, but a binder can also be missed.
As a blank, each scFv also met three strains without target: over library AAYL50, 18% of these pairings were detected, typically at 4.19 and seldom below 2.99.

With KSSRSVLYESRNKVSVA | WASTRES | QAYHRLPLS the result was 3.60, ND, ND. With KSSQSVLYESRNKESVA | WASTRES | QQYNRLPLM the result was 1.16, 1.30, 1.43 (mean 1.29). The variant KSSQSVLAESFNKDSVA | WASTRES | QQYHRLPLS showed 0.73, 0.95, 0.80 (mean 0.83). The variant KSSQSVLYESRNKRSVA | WASTRES | QMWHRLPLS showed ND, ND, ND. The variant KSSQSVLYESRNKDSVA | WASTRHS | QQYHRLPLC showed ND, 4.42, 3.54 (mean 3.98). The variant KSSQSVLYESTNKDSVA | AASTRES | QQYHRLPLS gave -0.23, 0.04, -0.11 (mean -0.10). For KSSQSVLYESRNTRSVA | WASTRES | QQYHRLPLS, the assay gave 0.69, 0.86, 0.81 (mean 0.79). The variant KSSQSVLYESRDKISVA | WASTRES | QQGHRLPLS showed ND, 3.90, 3.93 (mean 3.91). The variant ASSQSVLYESRNKQSVA | WASTRES | QQYHRLSLS showed 2.24, 2.23, 2.83 (mean 2.44).

The variant KDSQSVLYESRNMESVA | WASTRES | QQYHRLPLS gave 2.26, 2.17, 2.47 (mean 2.30). The variant KSKQSVLYESRNKESIA | WASTRES | QQYHRLPLS showed 0.81, 1.43, 1.07 (mean 1.11). The variant KSSQSVLYWSRNKWSVA | WASTDES | QQYHRLPLS showed ND, ND, ND. The variant KSSQSVLYESPNKRSVA | WASTRES | QQYHALPLS gave ND, ND, ND. With KSSQSVLYESRNFADVA | WASTRES | QQYHRLPLS the result was 1.04, 1.15, 1.22 (mean 1.14). The variant KSSQSVLYELRNKLSPA | WASTRES | QQYHRLPLS gave ND, ND, ND. For KSSQSVLYESRNKESVA | WACTRES | QQYHRLNLS, the assay gave 3.98, 3.66, 4.40 (mean 4.01). The variant KSSQSVLYESRNKMSVA | WASTKES | YQYHRLPLS gave 3.68, 3.44, 5.12 (mean 4.08). For KSGQSVLYESRNKQSVA | WASTKES | QQYHRLPLS, the assay gave ND, ND, ND.

The variant KSSQSVLYESRNKHSVA | WASTRES | QQYHALPLS gave 1.34, 1.53, 1.51 (mean 1.46). With CSSQVVLYESRNKTSVA | WASTRES | QQYHRLPLS the result was ND, ND, ND. The variant KSSQSVLYESRNKLSVA | WFSTRES | VQYHRLPLS gave ND, ND, ND. The variant KSSQSVLYESRNKPSVH | WASTRES | QQYHRLPLS gave ND, 3.39, ND. For KSSQSVLYGSRNKTSVI | WASTRES | QQYHRLPLS, the assay gave ND, ND, 3.64. For KSSQSVLYESRNKPSVA | WASMRES | QQKHRLPLS, the assay gave 1.71, 2.11, 2.52 (mean 2.11). With NSSQSVLYESRHKRSVA | WASTRES | QQYHRLPLS the result was ND, ND, ND. The variant KSSQSVLYESRNKHSVA | WASTRES | GQYHRLPLS gave ND, ND, ND. The variant KSSQCVLYESRNKDSVA | WASTRES | QTYHRLPLS showed 3.72, ND, 4.24 (mean 3.98).

The variant KSSQSVLYESRNKYSTA | WAGTRES | QQYHRLPLS showed 4.52, 4.12, 5.61 (mean 4.75). For KMSQSVLYESRNKQSVA | WASTRES | QQYHRLPYS, the assay gave ND, ND, ND. The variant KSSQSVLYESRNKTSPQ | WASTRES | QQYHRLPLS gave ND, ND, 4.73. With KSSQSVLYESRNSIYVA | WASTRES | QQYHRLPLS the result was 2.36, 3.16, 4.87 (mean 3.47). The variant KSSQSVLYESRNKQSVA | WASTRES | QQYHRLPLD showed ND, ND, ND. With KSSQSVLYEYRNKPSVA | WAKTRES | QQYHRLPLS the result was ND, ND, ND. The variant KSSQSVLYRSRGKSSVA | WASTRES | QQYHRLPLS showed 1.88, 1.75, 2.22 (mean 1.95). With KSSQSVLYESRNKTSVA | WAKTRES | QQYHRLPLS the result was ND, ND, ND. The variant KSSQSVLYHSRNKCSVA | WASTRES | HQYHRLPLS showed 4.37, ND, ND.

With KSSQSVAYESRNKASVA | WASTRES | QQYHRLPLS the result was 1.11, 1.40, 1.39 (mean 1.30). The variant KESQSVLYESRNKDSVA | LASTRES | QQYHRLPLS showed 1.48, 1.49, 1.84 (mean 1.60). The variant KSSQSVLYESRNKISVA | WASTRES | QQNARLPLS showed 3.18, 3.17, 3.23 (mean 3.19). The variant KSSQSVLMESRNKKSVA | WASTRES | QQYHRLPLM showed 1.71, 1.63, 1.94 (mean 1.76). The variant KSSQSVLYESRNKMSVA | WQSTRES | QQYHRLPLS gave ND, ND, ND. For KSSQSVLYETRNKFCVA | WASTRES | QQYHRLPLS, the assay gave 5.37, ND, ND. With KSSQSVLYESRNKWSVA | WASTREC | QQYHRLPYS the result was ND, 4.58, ND. With KSSQSVLYLSRNKLSVA | WFSTRES | QQYHRLPLS the result was ND, ND, ND. The variant KSSQSVLYESRNKDSVA | WFSHRES | QQYHRLPLS gave ND, ND, ND.

With KSSQSVLYCSRNEMSVA | WASTRES | QQYHRLPLS the result was 1.46, 1.83, 1.51 (mean 1.60).

Top 3 of the variants detected in all replicates, tightest first:

CDR-L1,CDR-L2,CDR-L3,"log10 Kd, replicates","log10 Kd (nM), mean"
KSSQSVLYESTNKDSVA,AASTRES,QQYHRLPLS,"-0.23, 0.04, -0.11",-0.10
KSSQSVLYESRNTRSVA,WASTRES,QQYHRLPLS,"0.69, 0.86, 0.81",0.79
KSSQSVLAESFNKDSVA,WASTRES,QQYHRLPLS,"0.73, 0.95, 0.80",0.83

Parent in this assay: reference entry 0.65, copy in this library 1.68.

Reference: Engelhart et al. 2022, doi:10.1038/s41597-022-01779-4. File: FLAb, binding data.